Results from patent publication EP0950398A2, “Use of esters as dispersants or solvents in sunscreens and solar protection pigments” (Henkel Kommanditgesellschaft auf Aktien, priority 1998, dated 1999).

Assay type: physicochemical
Conditions: result in words, comparison of all tested oil bodies

CCCCOC(=O)CCCCC(=O)OCCCC [Dibutyl Adipate]
Löslichkeit für die verschiedenen Filtertypen: beste Löslichkeit
